Data as given in US20140171424A1, “HYPERTENSION AND HYPERURICEMIA” (ARDEA BIOSCIENCES, INC., priority 2011, published 2014).

Key:
OAT4 [1] = target: T1, OAT4 (Homo sapiens, UniProt Q9NSA0); settings: Lesinurad 25, 50, 100 μM outside; 22, 44, 444 μM inside oocytes
T1 sequence (Q9NSA0 1-550): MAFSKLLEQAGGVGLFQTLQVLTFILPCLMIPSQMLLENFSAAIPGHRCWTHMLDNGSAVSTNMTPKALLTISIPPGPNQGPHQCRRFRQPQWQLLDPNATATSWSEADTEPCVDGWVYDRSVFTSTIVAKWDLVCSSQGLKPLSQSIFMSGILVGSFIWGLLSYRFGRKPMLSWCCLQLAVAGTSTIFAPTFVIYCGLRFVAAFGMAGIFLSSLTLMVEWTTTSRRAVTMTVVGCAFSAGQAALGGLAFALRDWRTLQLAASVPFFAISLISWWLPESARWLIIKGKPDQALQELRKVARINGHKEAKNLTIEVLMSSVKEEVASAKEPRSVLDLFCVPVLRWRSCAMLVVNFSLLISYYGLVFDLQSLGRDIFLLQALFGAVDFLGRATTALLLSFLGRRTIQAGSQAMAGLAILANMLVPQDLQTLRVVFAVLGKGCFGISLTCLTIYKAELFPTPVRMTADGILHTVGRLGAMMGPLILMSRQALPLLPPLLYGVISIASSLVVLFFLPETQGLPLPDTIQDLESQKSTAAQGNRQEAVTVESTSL

OAT4 [2] = target: T1, OAT4; test: OAT4 urate (14C-uric acid) transport in transfected HEK293/293T cells; type: cell-based; parameters: expressed in transfected cells
Description: For cultured cells, HEK293 cells stably expressing the transporters were produced through transfection of DNA constructs carrying the transporters, antibiotic selection, and clonal selection of clones with high transporter activity. Alternatively, cells transiently expressing the transporters were produced by reverse transfection of HEK293T cells. Transfectants were plated at high density onto poly-L-lysine coated multiwell plates and assayed 1-2 days later.

O=C(O)CSc1nnc(Br)n1-c1ccc(C2CC2)c2ccccc12 [Lesinurad, 2-(5-bromo-4-(4-cyclopropylnaphthalen-l-yl)-4H-1,2,4-triazol-3-ylthio)acetic acid]
percent uptake of 3H-Estrone sulfate, side of inhibition (OAT4 [1]): inhibits OAT4 primarily from the extracellular (apical) side
IC50 (OAT4 [2]): 5 µM
percent inhibition of UA transport, OAT4 (OAT4 [2]; 293T cells expressing URAT1 and/or OAT4, varying concentrations): inhibits URAT1 and OAT4 with similar potency
